Experimental data taken from patent US9604931B2, “Nuclear receptor binding agents” (GTx, Inc., priority 2007, dated 2017).

By UniProt entry, the sequences of proteins in these tests, tags left out.
UniProt P03372, whole entry, looked up: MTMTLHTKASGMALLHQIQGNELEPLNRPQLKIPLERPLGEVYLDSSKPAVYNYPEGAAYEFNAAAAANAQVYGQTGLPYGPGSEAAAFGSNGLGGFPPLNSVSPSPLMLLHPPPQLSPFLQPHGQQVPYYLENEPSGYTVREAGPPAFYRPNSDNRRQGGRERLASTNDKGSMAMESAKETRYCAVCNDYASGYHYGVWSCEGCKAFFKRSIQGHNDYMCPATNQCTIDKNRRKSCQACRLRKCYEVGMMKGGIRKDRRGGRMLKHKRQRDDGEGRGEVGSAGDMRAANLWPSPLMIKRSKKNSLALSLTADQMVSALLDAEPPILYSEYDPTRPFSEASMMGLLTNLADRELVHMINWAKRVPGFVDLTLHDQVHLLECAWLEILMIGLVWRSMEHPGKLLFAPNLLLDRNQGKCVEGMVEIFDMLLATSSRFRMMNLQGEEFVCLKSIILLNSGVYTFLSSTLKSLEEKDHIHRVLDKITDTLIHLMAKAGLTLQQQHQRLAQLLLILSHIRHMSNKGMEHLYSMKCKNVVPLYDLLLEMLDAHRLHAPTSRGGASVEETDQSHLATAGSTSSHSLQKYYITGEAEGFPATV
UniProt Q92731, whole entry, looked up: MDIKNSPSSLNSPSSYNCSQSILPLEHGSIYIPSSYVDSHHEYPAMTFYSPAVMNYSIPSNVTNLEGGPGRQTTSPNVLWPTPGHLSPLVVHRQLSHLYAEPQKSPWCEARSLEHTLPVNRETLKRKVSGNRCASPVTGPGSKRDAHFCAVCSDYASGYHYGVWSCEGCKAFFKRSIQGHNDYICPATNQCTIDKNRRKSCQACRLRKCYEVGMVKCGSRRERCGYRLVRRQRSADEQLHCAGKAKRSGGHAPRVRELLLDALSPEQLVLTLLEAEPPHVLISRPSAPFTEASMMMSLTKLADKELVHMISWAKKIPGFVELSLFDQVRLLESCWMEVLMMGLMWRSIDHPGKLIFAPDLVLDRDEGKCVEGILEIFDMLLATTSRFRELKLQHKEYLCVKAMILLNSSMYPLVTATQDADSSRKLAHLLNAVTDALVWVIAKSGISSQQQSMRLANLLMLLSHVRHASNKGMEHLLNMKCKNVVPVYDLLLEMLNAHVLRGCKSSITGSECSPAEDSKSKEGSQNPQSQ

Tests used:
[1] = target: ERα ligand binding domain (Homo sapiens, UniProt P03372); conditions: read-out: ER-α binding constant (Ki)
[2] = target: ERβ ligand binding domain (Homo sapiens, UniProt Q92731)

Structure (SMILES)	Ki [1] [nM]	Ki Ratio (ER-α/ER-β) [2]
O=c1c2ccc(O)cc2c(-c2ccccc2)cn1-c1ccc(O)cc1 [15a, 6-hydroxy-2-(4-hydroxyphenyl)-4-phenylisoquinolin-1(2H)-one]	1780	
COc1ccc(-c2cn(-c3ccc(O)cc3)c(=O)c3c(O)cc(O)cc23)cc1 [15g, 6,8-dihydroxy-2-(4-hydroxyphenyl)-4-(4-methoxyphenyl)isoquinolin-1(2H)-one]	70	145.8
